## Yeast mating assay B: variants of the scFv Ab-14

Target: peptide PDVDLGDISGINAS, taken from heptad repeat 2 (HR2) of SARS-CoV-2 spike.

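This is the validation round: designs drawn from the data on random variants, tested in the same kind of assay. Several design methods are mixed in this list. In AlphaSeq, yeast of one mating type display the scFv and yeast of the other type display the target. The frequency of each diploid, read from paired DNA barcodes, reflects how well the two displayed proteins bind. The ratio of observed to expected reads was calibrated, replicate by replicate, on BCL2-family standards whose Kd was known from biolayer interferometry. There are six technical replicates.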

Ab-14 is the parent antibody, in scFv form: VH, then the linker GGGGSGGGGSGGGGS, then VL. The heavy chain is unchanged in all variants.
VH: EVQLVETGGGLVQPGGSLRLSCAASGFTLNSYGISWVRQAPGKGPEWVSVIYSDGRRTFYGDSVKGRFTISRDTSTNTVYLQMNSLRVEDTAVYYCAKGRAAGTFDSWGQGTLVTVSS
VL: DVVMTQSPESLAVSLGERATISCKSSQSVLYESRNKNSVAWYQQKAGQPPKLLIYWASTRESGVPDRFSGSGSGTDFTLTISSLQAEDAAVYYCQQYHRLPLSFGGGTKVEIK

Each variant is given by its three light chain CDRs, as the data file delimits them; those of the parent are KSSQSVLYESRNKNSVA, WASTRES, QQYHRLPLS.
This list holds designs with at most six substitutions.
Each Kd is an estimate from the mating assay, the geometric mean of the replicates in which the pair was seen; lower is stronger.
"nd" means that the variant was in the library but no mating with the target was seen in any replicate; the authors take this as a sign of poor binding, and no number exists.
The list is sorted by this average, lowest first, undetected variants last.

For KLSQSQLYESRNKNSVA | SASTRES | QQYHRLPLS, the assay gave 380 pM (6 of 6 replicates; controls 2 of 18).
For KFQQSYLYESRNKNSVA | NASTRES | QQYHRLPLS, the assay gave 400 pM (6 of 6 replicates; controls 1 of 18).
For KSGQGWLYESRNKNSVA | GASLRES | QQYHRLPLS, the assay gave 410 pM (6 of 6 replicates; controls 0 of 18).
For KVSQSGLYESRNKNSVA | NASTREQ | QQYHRLPLS, the assay gave 500 pM (6 of 6 replicates; controls 2 of 18).
For KMSQSVLGEQRNKNSVA | DASTRES | QQYHRLPLS, the assay gave 520 pM (6 of 6 replicates; controls 0 of 18).
For HLSESVLYESRNKNSVA | NASTRES | QQYHRLPLS, the assay gave 550 pM (6 of 6 replicates; controls 1 of 18).
For KVEMSVPYESRNKNSVA | HASVRES | QQYHRLPLS, the assay gave 620 pM (6 of 6 replicates; controls 2 of 18).
For KVSASQLYWSRNKNSVA | NASTRET | QQYHRLPLS, the assay gave 620 pM (6 of 6 replicates; controls 1 of 18).
For KSSQSVLNESRNKASVA | DASTRES | QQYHRLPLS, the assay gave 630 pM (6 of 6 replicates; controls 0 of 18).
For KQSQSVLYESSNKNSVA | DASTRES | QQYHRLPLS, the assay gave 630 pM (6 of 6 replicates; controls 0 of 18).
For KLSQSMLYESRNKWSVA | NASTRES | QQYHRLPLS, the assay gave 650 pM (6 of 6 replicates; controls 3 of 18).
For KLSQSVPYEERNKNSVA | NASTRES | QQYHRLPLS, the assay gave 650 pM (6 of 6 replicates; controls 0 of 18).
For KVSQSVPYESRMKNSVA | DASTRCS | QQYHRLPLE, the assay gave 720 pM (6 of 6 replicates; controls 3 of 18).
For KFSQSVLYESRNKNSVA | HASTRYS | QQYYQLPLS, the assay gave 820 pM (6 of 6 replicates; controls 2 of 18).
For KFSQSVLYESRTSNSVA | NGSTRES | QQYHRLPLS, the assay gave 900 pM (6 of 6 replicates; controls 2 of 18).
For KLSQSVLYQSRNKNNVA | EASTRES | QQYHRLPLS, the assay gave 930 pM (6 of 6 replicates; controls 2 of 18).
For KFSDSVLLESRNKNSVA | NASTRES | QQYHRLPLS, the assay gave 1.0 nM (6 of 6 replicates; controls 0 of 18).
For KSSQSYHYESRNKNSVA | EASTRES | QQYHRLPLS, the assay gave 1.1 nM (6 of 6 replicates; controls 0 of 18).
For KLSQSFLYESRNKNSVA | NASTREV | QQYHRLPLS, the assay gave 1.1 nM (6 of 6 replicates; controls 0 of 18).
For KSSQSVLYESRNKNSVA | DASFRES | QQYHRLPLS, the assay gave 1.1 nM (6 of 6 replicates; controls 2 of 18).
For HLSQSVLYESRNKNSVA | HASTRCS | QQYHRLPLS, the assay gave 1.1 nM (6 of 6 replicates; controls 1 of 18).
For KLQQSEPYESRNKNSVA | NASTRMS | QQYHRLPLS, the assay gave 1.1 nM (6 of 6 replicates; controls 1 of 18).
For KSSISYLEESRNKNSVA | EASTREK | QQYHRLPLS, the assay gave 1.2 nM (6 of 6 replicates; controls 4 of 18).
For KLSQSTLYESRNTNSVA | QASTRLS | QQYHRLPLS, the assay gave 1.5 nM (6 of 6 replicates; controls 0 of 18).
For KVQQSVLYESRNKNSVA | NASTRES | QQYHRLPLS, the assay gave 1.6 nM (6 of 6 replicates; controls 3 of 18).
For KSSQSVLYESRNKNSVA | AGSTRES | QQYHRLPLS, the assay gave 2.0 nM (6 of 6 replicates; controls 0 of 18).
For KSSVSGLYESRMKNSVA | EASTRES | QQYHRLPLS, the assay gave 2.0 nM (6 of 6 replicates; controls 0 of 18).
For KLQQSWLYESRMKNSVA | NASTRES | QQYHRLPLS, the assay gave 2.2 nM (6 of 6 replicates; controls 3 of 18).
For KSSQSILYESVNKNSVA | HASTREQ | QQYHRLPLS, the assay gave 2.9 nM (6 of 6 replicates; controls 2 of 18).
For KFSQSVLMESRNKNSVA | WASTRES | QQYHRLPLS, the assay gave 3.0 nM (6 of 6 replicates; controls 1 of 18).
For KSQWSVLYESNNKNSVA | HASTRED | QQYHRLPLS, the assay gave 3.2 nM (6 of 6 replicates; controls 0 of 18).
For KLEQSEQYESRNKNSVA | NASTRES | QQYHRLPLS, the assay gave 3.7 nM (6 of 6 replicates; controls 0 of 18).
For KSSQSVLYASDNKNSVA | GASTRES | QQYHRMPLS, the assay gave 3.8 nM (6 of 6 replicates; controls 0 of 18).
For KSSQSVLNESRNKNSVA | DASGRES | QDYHRLVLS, the assay gave 9.9 nM (6 of 6 replicates; controls 0 of 18).
For KSSQSVPYESRNKNSVA | EASTRES | QDYHRLPLS, the assay gave 22 nM (6 of 6 replicates; controls 1 of 18).
For KSSHSVLYESLNKNSVA | WASTRES | QQYHRLPLS, the assay gave 24 nM (5 of 6 replicates; controls 0 of 18).
For KSSESVLYESHNKNSVA | EASTRMS | QQYHRLPLS, the assay gave 25 nM (6 of 6 replicates; controls 0 of 18).
For KLSQSDLYESRNVNSVA | AASTREY | QQQHRLPLS, the assay gave 27 nM (6 of 6 replicates; controls 0 of 18).
For KSSQSVVYDSRNKNSVA | WATTRES | QQYHRLPLS, the assay gave 40 nM (6 of 6 replicates; controls 1 of 18).
For KSSQSVLTESRNKNSVA | WASTRED | QQYHRYPLS, the assay gave 100 nM (3 of 6 replicates; controls 1 of 18).
For KSSQSKIYYSRNKNSVA | GAQTRES | QQYHRLPLS, the assay gave 110 nM (2 of 6 replicates; controls 0 of 18).
For KSSQSVLFESRNMNSVA | WASTRES | QQYHRLPLS, the assay gave 130 nM (2 of 6 replicates; controls 0 of 18).
For KSSQSVLYESRHKNSVA | WGSTRMS | QQYHRLPLS, the assay gave 140 nM (6 of 6 replicates; controls 1 of 18).
For KSSQSVLWESFNKNSVA | WASTRLS | QQYHRLPLS, the assay gave 380 nM (5 of 6 replicates; controls 1 of 18).
For KSSQAVLYESRNKNSVA | WASTRES | QQYHRLPLS, the assay gave 520 nM (3 of 6 replicates; controls 1 of 18).
For KLSQSVLYESRNKNSVA | HASTRES | QQIDRLPNS, the assay gave 1.1 µM (2 of 6 replicates; controls 0 of 18).
For KSSQSVVYESRMKNPVA | WASTRES | QWYHRLAES, the assay gave nd (0 of 6 replicates; controls 0 of 18).
For KSSQSVLYESLNKNAVA | WASTRES | QGYHRLPLW, the assay gave nd (0 of 6 replicates; controls 0 of 18).
For KSSQSVLVECRNKNSVA | TASTRES | QQYTRLPLS, the assay gave nd (0 of 6 replicates; controls 0 of 18).
For QSSQSVLYESRNKNSVA | NADTRES | QQYHRLLLS, the assay gave nd (0 of 6 replicates; controls 0 of 18).
For KSYQSFLYESRNKNSVA | GASTRES | QNYHRLTLS, the assay gave nd (0 of 6 replicates; controls 0 of 18).

A selection of 5 entries from above:

CDR-L1	CDR-L2	CDR-L3	apparent Kd	seen in	signal with controls
KSYQSFLYESRNKNSVA	GASTRES	QNYHRLTLS	nd	0 of 6	0 of 18
KFSDSVLLESRNKNSVA	NASTRES	QQYHRLPLS	1.0 nM	6 of 6	0 of 18
KFSQSVLYESRTSNSVA	NGSTRES	QQYHRLPLS	900 pM	6 of 6	2 of 18
KLSQSVPYEERNKNSVA	NASTRES	QQYHRLPLS	650 pM	6 of 6	0 of 18
KSSQSVLNESRNKASVA	DASTRES	QQYHRLPLS	630 pM	6 of 6	0 of 18

Nonspecific signal, from three strains lacking the peptide, appeared in 4% of pairings of all light chain designs, centred on 430 nM (5% of these signals below 38 nM); values are not corrected for it. The control count says in how many pairings with the empty strains this scFv gave a signal.
The authors' rule: three or more of the six replicates give a measured affinity, fewer mean a poor binder.
Values of this round are not directly comparable with the first-round values of the same sequences.

Reference: Li et al. 2023, doi:10.1038/s41467-023-39022-2. File: FLAb, binding data.